Source: patent publication US8710085B2, “Pyrrolidine-1,2-dicarboxamide derivatives” (Novartis AG, priority 2008, dated 2014)

Protein sequences, listed by entry. Tags and fused reporters are not part of them. Chains listed by the source or under a name are the forms on record and can include a tag or linker.
UniProt P42336, with tags, fused parts or gaps: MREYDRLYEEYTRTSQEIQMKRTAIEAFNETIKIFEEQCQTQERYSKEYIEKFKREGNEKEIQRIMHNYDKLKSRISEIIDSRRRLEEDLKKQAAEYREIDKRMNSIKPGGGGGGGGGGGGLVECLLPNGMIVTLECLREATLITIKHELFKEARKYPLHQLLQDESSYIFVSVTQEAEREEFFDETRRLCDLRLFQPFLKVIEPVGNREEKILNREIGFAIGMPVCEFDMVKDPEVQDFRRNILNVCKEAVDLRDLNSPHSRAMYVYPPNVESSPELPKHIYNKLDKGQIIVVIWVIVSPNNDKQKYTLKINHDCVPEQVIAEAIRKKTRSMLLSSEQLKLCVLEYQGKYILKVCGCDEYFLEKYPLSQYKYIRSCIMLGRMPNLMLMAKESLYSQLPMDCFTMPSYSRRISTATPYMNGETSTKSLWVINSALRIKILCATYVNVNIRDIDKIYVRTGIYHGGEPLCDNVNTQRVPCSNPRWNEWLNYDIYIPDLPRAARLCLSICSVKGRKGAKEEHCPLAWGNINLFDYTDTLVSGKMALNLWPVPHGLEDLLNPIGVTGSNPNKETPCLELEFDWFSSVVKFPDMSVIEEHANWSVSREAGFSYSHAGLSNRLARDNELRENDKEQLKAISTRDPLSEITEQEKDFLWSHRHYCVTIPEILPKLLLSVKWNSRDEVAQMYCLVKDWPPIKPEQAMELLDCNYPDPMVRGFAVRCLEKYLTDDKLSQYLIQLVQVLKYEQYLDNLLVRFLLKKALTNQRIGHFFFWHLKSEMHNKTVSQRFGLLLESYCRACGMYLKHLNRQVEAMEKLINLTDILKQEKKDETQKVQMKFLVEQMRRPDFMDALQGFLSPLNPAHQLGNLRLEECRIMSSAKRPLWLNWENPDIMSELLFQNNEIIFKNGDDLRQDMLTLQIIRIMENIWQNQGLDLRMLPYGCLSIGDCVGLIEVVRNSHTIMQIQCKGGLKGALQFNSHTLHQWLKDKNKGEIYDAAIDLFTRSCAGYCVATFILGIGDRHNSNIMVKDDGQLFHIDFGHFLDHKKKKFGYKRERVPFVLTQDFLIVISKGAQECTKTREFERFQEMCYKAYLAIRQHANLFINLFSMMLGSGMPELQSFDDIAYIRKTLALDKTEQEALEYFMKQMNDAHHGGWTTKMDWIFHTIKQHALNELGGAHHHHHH

Molecular target: T1, PI3Kα (Homo sapiens, UniProt P42336)
T1 construct: p110α(21-1068)-His; made in house; host or cells: baculovirus, Tn5 insect cells
Test: PI3K KinaseGlo assay, PI3Kα
Type: biochemical
Conditions: 10 nM enzyme, 1 μM ATP, 30 mins, room temperature

Row | Structure (SMILES) | PI3Ka/IC50 [umol I-1]
1 | Cc1nc(NC(=O)N2CCC[C@H]2C(N)=O)sc1-c1ccnc(C(C)(C)C)c1 [Example 1, (S)-Pyrrolidine-1,2-dicarboxylic acid 2-amide 1-{[5-(2-tert-butyl-pyridin-4-yl)-4-methyl-thiazol-2-yl]-amide}] | 0.014
2 | Cc1nc(NC(=O)N2CCC[C@H]2C(N)=O)sc1-c1ccnc(C2(C)CC2)n1 [Example 42, (S)-Pyrrolidine-1,2-dicarboxylic acid 2-amide 1-({4-methyl-5-[2-(1-methylcyclopropyl)-pyrimidin-4-yl]-thiazol-2-yl}-amide)] | 0.012
